{"source": "patent US20110028552A1", "about": "“MEXILETINE AMINO ACID AND PEPTIDE PRODRUGS AND USES THEREOF” (priority 2009, published 2011)", "key": {"[1]": {"conditions": "treated patients (Morganroth 1987); cited from earlier work"}, "[2]": {"assay": "in vivo", "conditions": "for half-life: t½", "protocol": "Blood samples were taken at various times after administration and submitted to analysis for the prodrug and parent drug using a validated LC-MS-MS assay. Pharmacokinetic parameters derived from the plasma analytical were determined using Win Nonlin."}, "[3]": {"conditions": "in vivo, po, 10 mg, Mean, plasma mexiletine, mean of six ferrets, oral 10 mg mexiletine free base equivalents/kg"}, "[4]": {"conditions": "in vivo, po, 10 mg, plasma mexiletine, individual ferrets, oral 10 mg mexiletine free base equivalents/kg"}}, "note": "Marks after values point to notes of the source that are not given here.", "data": [{"molecule": "Cc1cccc(C)c1OCC(C)N.Cl", "note": "(racemic) [Mexiletine hydrochloride, (rac)-1-(2,6-dimethylphenoxy)-2-propanamine hydrochloride]", "values": [{"measurement": "incidence of nausea, vomiting and abdominal discomfort", "setting": "[1]", "result": 38, "unit": "%"}, {"measurement": "Tmax", "setting": "[2]; in vivo, po, 10 mg", "result": 0.5, "unit": "h"}, {"measurement": "half-life", "setting": "[2]; in vivo, po, 10 mg mexiletine free base equivalents/kg, Mean, plasma mexiletine, six ferrets, b = calculated as ln2/mean k, oral 10 mg free base equivalents/kg", "result": 4.5, "unit": "h"}, {"measurement": "AUC", "setting": "[2]; [3]", "result": 19500, "unit": "ng·h/mL"}, {"measurement": "AUC", "setting": "[2]; [4]", "result": 24400, "unit": "ng·h/mL"}, {"measurement": "Cmax", "setting": "[2]; [3]", "result": 3540, "unit": "ng/mL"}, {"measurement": "Cmax", "setting": "[2]; [4]", "result": 3770, "unit": "ng/mL"}, {"measurement": "half-life", "setting": "[2]; [4]", "result": 4, "unit": "h"}, {"measurement": "Tmax", "setting": "[2]; plasma mexiletine, individual ferrets, oral 10 mg mexiletine free base equivalents/kg", "result": 0.5, "unit": "h"}, {"measurement": "Tmax, Median value", "setting": "[2]; plasma mexiletine, median of six ferrets, oral 10 mg mexiletine free base equivalents/kg", "result": "0.5^a h"}]}]}
